{
  "source": "patent US10428151B2",
  "about": "“Treatment of hematologic malignancies with an anti-CXCR4 antibody” (BRISTOL-MYERS SQUIBB COMPANY, priority 2011, dated 2019)",
  "system": "MJ",
  "test": "Apoptosis panel 24 h: MJ",
  "assay_type": "cell-based, human",
  "conditions": "MJ (TCL), with cross linking antibody",
  "description": "For a subset of cells (see Table 4), a cross linking antibody (goat anti-human IgG Fc specific polyclonal Ab) was added at six-fold excess. For all cell types, camptothecin (CPT), a cytotoxic quinoline alkaloid which inhibits the DNA enzyme topoisomerase I, was added at 10 μM for 24 hours at 37° C. as a positive control for apoptosis induction. Cells were then resuspended in Annexin V binding buffer (10 mM HEPES at pH 7.4, 140 mM NaCl, 2.5 mM CaCl2) and stained with Annexin V-APC and 7-Aminoactinomycin D (7-AAD) or propidium iodide (PI). Cells were washed, resuspended in Annexin V binding buffer, and analyzed by flow cytometry (FACSArray system, BD Biosciences, San Jose, Calif.) and FlowJo software (Treestar, Inc., San Carlos, Calif.).",
  "data": [
    {"substance": "BMS-936564: fully human anti-CXCR4 monoclonal antibody; VH SEQ ID NO: 25, VL SEQ ID NO: 29", "values": [
      {"measurement": "Adjusted Percent Apoptosis", "value": 9, "unit": "%"}
    ]}
  ]
}
